# Results reported in PubChem BioAssay AID743445 (Broad Institute, 2014).
# Protein sequences, listed by entry. Tags and fused reporters are not part of them. Lines headed by an entry give the natural chain unless they say otherwise; changes in a name come on top.
# UniProt O96028: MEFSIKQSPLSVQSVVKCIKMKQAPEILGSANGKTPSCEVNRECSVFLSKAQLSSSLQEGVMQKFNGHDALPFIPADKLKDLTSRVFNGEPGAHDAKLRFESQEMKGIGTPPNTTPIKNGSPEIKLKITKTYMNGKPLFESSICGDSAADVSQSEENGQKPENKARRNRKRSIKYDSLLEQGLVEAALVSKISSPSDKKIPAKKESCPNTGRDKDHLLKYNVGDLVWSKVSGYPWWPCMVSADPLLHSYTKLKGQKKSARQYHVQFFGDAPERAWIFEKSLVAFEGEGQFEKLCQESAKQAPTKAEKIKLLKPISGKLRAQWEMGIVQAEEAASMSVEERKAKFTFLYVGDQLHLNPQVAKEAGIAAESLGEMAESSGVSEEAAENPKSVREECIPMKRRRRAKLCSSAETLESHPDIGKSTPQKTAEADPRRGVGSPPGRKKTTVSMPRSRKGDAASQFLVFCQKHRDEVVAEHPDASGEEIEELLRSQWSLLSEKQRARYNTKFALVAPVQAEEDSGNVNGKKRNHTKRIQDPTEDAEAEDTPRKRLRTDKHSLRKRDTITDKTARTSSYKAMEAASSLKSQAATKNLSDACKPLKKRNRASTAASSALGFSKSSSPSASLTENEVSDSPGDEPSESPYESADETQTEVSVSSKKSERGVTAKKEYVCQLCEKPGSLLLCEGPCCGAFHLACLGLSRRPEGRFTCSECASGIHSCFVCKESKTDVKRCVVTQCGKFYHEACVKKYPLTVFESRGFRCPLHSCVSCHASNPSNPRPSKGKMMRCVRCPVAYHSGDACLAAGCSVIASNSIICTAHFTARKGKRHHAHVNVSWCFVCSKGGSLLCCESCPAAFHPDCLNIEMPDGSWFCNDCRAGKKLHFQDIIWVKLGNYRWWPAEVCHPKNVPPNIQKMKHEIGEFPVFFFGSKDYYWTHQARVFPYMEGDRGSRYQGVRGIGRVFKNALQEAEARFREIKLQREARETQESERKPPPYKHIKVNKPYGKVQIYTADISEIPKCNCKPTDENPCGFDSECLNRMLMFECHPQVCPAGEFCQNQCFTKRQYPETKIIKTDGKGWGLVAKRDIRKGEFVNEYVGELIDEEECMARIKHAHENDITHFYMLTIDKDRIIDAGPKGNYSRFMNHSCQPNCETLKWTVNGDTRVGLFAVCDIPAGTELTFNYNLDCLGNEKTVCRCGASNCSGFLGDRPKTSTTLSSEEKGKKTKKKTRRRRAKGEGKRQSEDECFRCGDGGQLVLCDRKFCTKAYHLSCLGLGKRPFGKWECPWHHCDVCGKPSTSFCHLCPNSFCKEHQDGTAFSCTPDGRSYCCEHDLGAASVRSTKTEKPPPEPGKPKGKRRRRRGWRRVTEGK
# This is a selection; strong and weak results do not stand in their true shares. Active and inactive are the calls of the source. Cut-off read from the data, not from the text of the source: active = inhibition above about 50%; inactive = the rest.
# Biological target: Histone-lysine N-methyltransferase NSD2 (Homo sapiens) (UniProt O96028)
# Experiment: blockers of NSD2 lysine methylation activity – biochemical, AlphaScreen, single concentration, set 2, primary screen (AID 743445)
# Settings: NSD2 peptide methylation, 120 min, at 12.5 µM, stronger effect = higher value
row,SMILES,inhibition
1,O=C(O)C(=O)c1ccc(N(CCCl)CCCl)cc1,inactive: -0.154%
2,COP1(=S)c2c(C)nn(CCC#N)c2N=C(c2ccc(F)cc2)N1C (stereo not given),inactive: 1.9%
3,COC(=O)C1(C)COP(=O)(N2CCCC2)OC1 (stereo not given),inactive: 3.06%
4,O=[N+]([O-])c1ccc(Nc2ccc(Oc3ccc([N+](=O)[O-])cc3[N+](=O)[O-])cc2)c([N+](=O)[O-])c1,inactive: 3.92%
5,O=P(Nc1ccccn1)(c1cccc2ccccc12)c1cccc2ccccc12,inactive: 0.579%
6,Cc1cc(SC(NC=O)C(Cl)(Cl)Cl)ncn1 (stereo not given),inactive: 0.126%
7,CCOC(=O)Nc1cccc([As](=O)(O)O)c1,inactive: -1.95%
8,CCCCOc1ccc(C(=O)NCC2(N3CCCCC3)CCCCC2)cc1OC,inactive: 1.52%
9,COP(=O)(OC)N1CC1c1ccccc1 (stereo not given),inactive: -6.15%
10,CC1CCNP(=O)(N(CCCl)CCCl)O1 (stereo not given),inactive: -8.75%
11,CCOC(=O)Nc1ccc([As](=O)(O)O)c(O)c1,inactive: -3.15%
12,O=C(O)C(O)c1ccc(N(CCCl)CCCl)cc1 (stereo not given),inactive: 0.662%
13,Cc1ccc(OCC(=O)OC2CN3CCC2CC3)cc1 (stereo not given),inactive: -2.46%
14,O=[As](O)(c1cccs1)c1cccs1,inactive: 1.38%
15,O=P1(Nc2ccc(Br)cn2)COc2ccccc2OC1,inactive: 0.294%
16,NS(=O)(=O)c1cccc(NC(=O)COC(=O)C(O)(c2ccccc2)c2ccccc2)c1,inactive: -1.09%
17,Nc1cccc([As](=O)(O)c2ccccc2)c1,inactive: 1.56%
18,O=P1(Nc2ncccn2)COc2ccccc2OC1,inactive: -12%
19,Cc1ccc(S(=O)(=O)N(CCCN)CCCc2c(C)nc(N)[nH]c2=O)cc1,inactive: 3.76%
20,O=C(/C=C/c1ccccc1)OC1CN2CCC1CC2 (stereo not given),inactive: -1.35%
21,CCCC1OP(=O)(Nc2ccccc2)OCC1CC (stereo not given),inactive: 0.949%
22,CN(C)C1(CNC(=O)c2ccc(S(C)(=O)=O)cc2)CCCCC1,inactive: -5.15%
23,Cc1nn(-c2ccccc2)c2c1P(=O)(N1CCOCC1)N(C)C(c1ccccc1)=N2 (stereo not given),inactive: -0.315%
24,CC1CCC(C(C)C)C(OP(=O)(Nc2ccccn2)c2ccccc2)C1 (stereo not given),inactive: 3.89%
25,Cc1ccc(C(=O)OC2CN3CCC2CC3)cc1 (stereo not given),inactive: -0.746%

row,SMILES,inhibition
1,CC1(CBr)Cn2c(nc3ccccc3c2=O)S1 (stereo not given),inactive: -4.35%
2,CC(C)/C=N\N=C(\N)N[N+](=O)[O-],inactive: -2.38%
3,COc1ccccc1CNC(=O)COC(=O)C(O)(c1ccccc1)c1ccccc1,inactive: -0.452%
4,O=P1(N(CCCl)CCCl)NCCC(C(F)(F)F)O1 (stereo not given),inactive: 0.799%
5,Clc1n[nH]nc1-c1nn[nH][15n]1,inactive: 2.44%
6,CCOP(=O)(Nc1ccc(C)cn1)OCC,inactive: -4.46%
7,O=P1(Nc2ccccn2)COc2ccccc2OC1,inactive: -0.602%
8,CCC1=CC2Cc3nc4ccc(Cl)cc4c(N)c3C(C1)C2 (stereo not given),inactive: 13.3%
9,CCOP(=O)(NC(=NC(C)c1ccccc1)NC(C)c1ccccc1)OCC (stereo not given),inactive: -6.49%
10,COc1cc(C2NCCC3(OCCO3)C2(C)C)cc(OC)c1OC (stereo not given),inactive: 0.403%
11,CCOP(=O)(Nc1cccc2ccccc12)OCC,inactive: -0.359%
12,CCCOP(=S)(Nc1nc(N)cc(=O)[nH]1)OCCC,inactive: 0.828%
13,Cc1ccc(NCCc2c([N+](=O)[O-])cc([N+](=O)[O-])cc2[N+](=O)[O-])cc1,inactive: 0.657%
14,Nc1cccc2c([As](=O)(O)O)cccc12,inactive: 11.8%
15,Cc1cccc(OCC(=O)OC2CN3CCC2CC3)c1 (stereo not given),inactive: -1.69%
16,O=[As](O)(O)c1cccnc1,inactive: 3.05%
17,COc1cc(C(=O)NCC2(N3CCOCC3)CCCCC2)cc(Cl)c1OC(C)C,inactive: -2.91%
18,CS(=O)(=O)c1ccc(Cl)c(NC(=O)COC(=O)C(O)(c2ccccc2)c2ccccc2)c1,inactive: 3.73%
19,O=C(OC1CN2CCC1CC2)c1ccc(Cl)cc1 (stereo not given),inactive: 29.2%
20,O=[N+]([O-])c1ccc2c(c1)nnn2O,inactive: -1.2%
21,N#CCCN(C(=O)COC(=O)C(O)(c1ccccc1)c1ccccc1)c1ccc(F)cc1,inactive: 1.39%
22,CCOP1(=S)c2c(C)nn(CCC#N)c2N=C(c2ccc(F)cc2)N1C (stereo not given),inactive: -0.552%
23,O=C(O)COc1ccc([As](=O)(O)O)cc1[N+](=O)[O-],inactive: -1.31%
24,CCOP1(=S)c2c(C)nn(CCC#N)c2N=C(c2ccccc2F)N1C (stereo not given),inactive: 1.44%
25,O=P(Nc1nccs1)(Oc1ccccc1)Oc1ccccc1,inactive: 3.24%
